Antibody variant affinities, Ab-95 light chain, assay 2

Values reported by Engelhart et al. 2022, doi:10.1038/s41597-022-01779-4 (FLAb copy).

All variants were tested on one target, the spike HR2 peptide PDVDLGDISGINAS (SARS-CoV-2).

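The starting antibody came from a phage panning campaign against this peptide. AAYL52 was designed without a model: most single CDR substitutions and a random sample of double and triple ones. Affinity was read by AlphaSeq, a pooled yeast mating assay with surface-displayed partners. The frequency of each diploid, read from paired DNA barcodes, reflects how well the two displayed proteins bind. Read counts were normalised to the haploid input and turned into Kd by a linear fit to BCL2-family pairs of known affinity, for each replicate. There are three technical replicates.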

Each scFv is VH, three GGGGS repeats, VL, as in the parent Ab-95, and differs from it in the CDRs of the light chain only.
VH: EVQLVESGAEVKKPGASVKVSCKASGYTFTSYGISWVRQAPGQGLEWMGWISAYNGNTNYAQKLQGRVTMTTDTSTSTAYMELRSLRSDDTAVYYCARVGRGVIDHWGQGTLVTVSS
VL: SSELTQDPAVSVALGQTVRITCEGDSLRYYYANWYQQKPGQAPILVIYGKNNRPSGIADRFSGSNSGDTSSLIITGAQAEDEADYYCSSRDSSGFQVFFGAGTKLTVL

Positions count from residue 1 of the parent VL; E23M puts M in place of E.
Numbers give log10(Kd / nM), so 0 is 1 nM and 3 is 1 µM. Smaller is tighter.
Replicates are averaged; those with no signal do not enter the mean.
An entry "nd" has no value in the source: the pair was not observed among the diploids in that replicate. This suggests poor binding but is not conclusive.

| changes | log10 Kd, replicates | mean log10 Kd (nM) | signal with controls |
|---|---|---|---|
| E23M/R28G | 2.55 / 2.39 / 2.21 | 2.38 | 1/9 (3.03) |
| Y31D/S89M/F95Q | 3.02 / 2.40 / 3.86 | 3.09 | 2/9 (4.15) |
| S55W/F95V/Q96G | 2.91 / 3.02 / 4.14 | 3.36 | 4/9 (3.65) |
| G49F/V97I/F98C | 3.04 / nd / nd | 3.04 | 1/9 (4.45) |
| S26Q/R28G/G94S | nd / 2.91 / nd | 2.91 | 2/9 (4.48) |
| E23F | 3.11 / 2.61 / 4.63 | 3.45 | 1/9 (3.84) |
| R53A/D91E/F98H | 3.03 / 4.00 / 4.16 | 3.73 | 2/9 (3.20) |
| Y31L/K50E/S92K | 2.19 / 1.88 / 1.67 | 1.91 | 1/9 (4.45) |
| Y30M/K50S/F95Y | 3.41 / 3.82 / nd | 3.62 | 6/9 (4.19) |
| G24Y/Y31N/S92V | 2.69 / 2.68 / 2.53 | 2.63 | 2/9 (3.98) |
| G49Y | 3.50 / 2.90 / 3.76 | 3.39 | 2/9 (3.50) |
| S55C/S88W/V97N | nd / nd / nd | nd | 1/9 (2.40) |
| L27K/D91E/S93C | 3.13 / 2.91 / 3.97 | 3.34 | 7/9 (3.66) |
| L27G/N33C/R90P | nd / nd / nd | nd | 0/9 |
| G24S/S92C/V97N | 3.88 / 3.58 / 3.48 | 3.64 | 4/9 (3.30) |
| A32K/N51S/S92L | 4.44 / 3.79 / 4.10 | 4.11 | 3/9 (4.86) |
| R28L/D91L/Q96W | 4.40 / 4.67 / 4.66 | 4.58 | 7/9 (3.80) |
| E23N/N33L/S92A | nd / nd / 4.04 | 4.04 | 5/9 (4.05) |
| E23N/Q96A/V97F | 2.40 / 2.89 / 2.30 | 2.53 | 6/9 (3.99) |
| D25W/S88F/R90A | 2.14 / 1.96 / 2.44 | 2.18 | 0/9 |
| D25K/A32F/V97S | 3.94 / nd / nd | 3.94 | 2/9 (4.40) |
| K50L | 2.85 / 2.75 / 2.51 | 2.70 | 1/9 (4.42) |
| E23T/S89P/S92F | 2.36 / 3.29 / 3.71 | 3.12 | 5/9 (3.79) |
| S26L/R28D/S55E | 4.03 / nd / 2.75 | 3.39 | 5/9 (4.18) |
| E23C/N51H/V97A | 3.76 / nd / nd | 3.76 | 3/9 (3.90) |
| Y31D/F98H | 1.26 / 1.08 / 0.58 | 0.97 | 6/9 (3.93) |
| E23Q/D91N/S92W | 2.49 / 2.33 / 1.92 | 2.24 | 1/9 (3.99) |
| Y31L/N33Y/N51Y | nd / nd / nd | nd | 1/9 (2.86) |
| L27S/Y31I/R90V | 5.36 / 4.15 / nd | 4.76 | 5/9 (4.11) |
| N51H/Q96E/V97N | 2.71 / 2.75 / 2.04 | 2.50 | 2/9 (2.88) |
| N51P/R53Q | 4.01 / 5.68 / nd | 4.84 | 4/9 (4.07) |
| S55H/S92P/G94E | nd / nd / 4.10 | 4.10 | 3/9 (3.13) |
| S55R/S89C | 2.73 / 2.01 / 2.98 | 2.58 | 3/9 (4.04) |
| P54N/S55E/D91K | 3.03 / 3.31 / 3.40 | 3.25 | 2/9 (3.88) |
| S26R/D91Q/S93H | 3.62 / 4.83 / nd | 4.23 | 1/9 (3.72) |
| R28M/N33I/K50W | nd / nd / nd | nd | 1/9 (3.46) |
| G49D/R90I/S93P | 4.35 / 3.74 / nd | 4.05 | 0/9 |
| Y31C/F95V/F98R | 2.20 / 2.47 / 2.51 | 2.39 | 6/9 (4.21) |
| S26T/S89C/S92T | 3.14 / 3.42 / 4.54 | 3.70 | 3/9 (4.13) |
| G49T/N52W/S88N | 4.01 / nd / nd | 4.01 | 1/9 (3.99) |
| R53L/R90I/D91I | 3.78 / nd / nd | 3.78 | 3/9 (4.17) |
| S89P/S92I | 1.97 / 2.44 / 1.95 | 2.12 | 2/9 (3.70) |
| D25I/A32W/F95L | nd / nd / 3.39 | 3.39 | 1/9 (2.85) |
| R28P/N52F/P54A | 2.74 / 2.48 / 2.24 | 2.49 | 3/9 (3.36) |
| S26Y/Y30G | 1.63 / 1.57 / 1.22 | 1.48 | 4/9 (3.55) |

The opening 2 entries, copied out:

changes,"log10 Kd, replicates",mean log10 Kd (nM),signal with controls
E23M/R28G,2.55 / 2.39 / 2.21,2.38,1/9 (3.03)
Y31D/S89M/F95Q,3.02 / 2.40 / 3.86,3.09,2/9 (4.15)

As a blank, each scFv also met three strains without target: over library AAYL52, 28% of these pairings were detected, typically at 3.91 and seldom below 2.90. For each scFv, signals with the empty controls are counted beside the result, with their mean in brackets.
Parent in this assay: reference entry 2.31, copy in this library 2.25.